Literature values in publication PMC8015229, “Focus on Human Monoamine Transporter Selectivity. New Human DAT and NET Models, Experimental Validation, and SERT Affinity Exploration” (ACS Chemical Neuroscience, 2020).

Chains of the proteins cited; added tags and fusions are not shown.
UniProt P31645, whole entry: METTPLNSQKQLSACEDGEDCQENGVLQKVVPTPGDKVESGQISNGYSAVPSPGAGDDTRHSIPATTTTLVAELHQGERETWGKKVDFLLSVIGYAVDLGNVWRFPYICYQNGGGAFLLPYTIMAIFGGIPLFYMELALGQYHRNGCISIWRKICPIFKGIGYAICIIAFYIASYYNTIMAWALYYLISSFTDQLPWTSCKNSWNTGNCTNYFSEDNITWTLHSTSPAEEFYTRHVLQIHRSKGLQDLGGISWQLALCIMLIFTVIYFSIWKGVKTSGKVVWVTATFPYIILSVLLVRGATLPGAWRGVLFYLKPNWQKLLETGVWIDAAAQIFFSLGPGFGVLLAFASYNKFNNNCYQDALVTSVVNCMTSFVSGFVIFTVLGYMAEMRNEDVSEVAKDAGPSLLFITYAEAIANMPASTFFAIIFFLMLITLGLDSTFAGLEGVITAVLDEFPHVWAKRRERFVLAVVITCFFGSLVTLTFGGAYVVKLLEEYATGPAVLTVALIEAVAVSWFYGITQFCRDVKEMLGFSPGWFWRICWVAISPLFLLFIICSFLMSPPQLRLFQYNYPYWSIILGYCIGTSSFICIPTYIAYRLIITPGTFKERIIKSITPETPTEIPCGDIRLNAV

Biological target: SERT (Homo sapiens, UniProt P31645)
Conditions: cited from earlier work

Question: For `COC(=O)[C@H]1[C@@H](c2ccc(Cl)cc2)C[C@@H]2CC[C@H]1N2C` [compound 9, RTI-31], which “SERT pKi exp” value is on record?
Answer: 7.7
